Measurements: patent publication US11331328B2, “Compositions and methods for inhibiting antiapoptotic Bcl-2 proteins as anti-aging agents” (priority 2014, dated 2022)

Experiments:
[1] = test system: senescent WI38 cells induced by expression of oncogenic Ras (Ras-SC); test: Cell viability, LD50 in oncogenic Ras-induced senescent WI-38 cells; assay type: cell-based, human; settings: Table 2
Method: (§1) Human WI-38 fibroblasts (WI38 cells, #CCL-75™), human IMR-90 fibroblasts (IMR90 cells, #CCL-186™), human renal epithelial cells (REC cells, #PCS-400-012™) were obtained from ACTT (Manassas, Va., USA). Mouse embryonic fibroblasts (MEF) were isolated from mouse embryos as described^1. All cells were cultured in a complete medium (CM) (Dulbecco's Modified Eagle Medium supplemented with 10% fetal bovine serum [FBS], 100 U/ml penicillin, and 100 μg/ml streptomycin [all from Atlanta Biologicals, Norcross, Ga., and USA]) in a humidified incubator at 37° C. and 5% CO2. Low passages of WI-38 cells (<25), IMR-90 (<25), REC cells (<25) and MEF (<3) were used as non-senescent controls or for induction of senescence to avoid replicative senescence. To induce replicative senescence, WI-38 cells were subcultivated until cell division ceased after about 38 passages or 60 population doublings (FIG. 5)^2. […]
(§2) Flow cytometry: Non-senescent and senescent cells were seeded into wells of 24- or 48-well at about 70% of confluence. […] Viable cells (PI^− cells) were numerated by flow cytometry at a constant flow rate and calculated as a percentage of control cells treated with vehicle using the formula: percentage of control=(Ndrug/NC)×100, where Ndrug and NC represent the absolute number of PI^− viable cells of drug-treated and vehicle-treated cells, respectively. […]

[2] = test system: IR-induced senescent WI-38 cells (SC); test: Cell viability (PI flow cytometry), LD50 in IR-induced senescent WI-38 cells; assay type: cell-based, human
[3] = test system: senescent cells in TBI p16-3MR mice; test: Senescent cell clearance in TBI p16-3MR mice (luminescence, p16 mRNA); assay type: in vivo, mouse; settings: 6 Gy TBI; 2 treatment cycles
[4] = test system: senescent WI38 cells induced by replicative exhaustion (Rep-SC); test: Cell viability, LD50 in replicative senescent WI-38 cells; assay type: cell-based, human; settings: Table 2
Method: as §1, §2

## CC1(C)CCC(c2ccc(Cl)cc2)=C(CN2CCN(c3ccc(C(=O)NS(=O)(=O)c4ccc(N[C@H](CCN5CCOCC5)CSc5ccccc5)c(S(=O)(=O)C(F)(F)F)c4)cc3)CC2)C1 [ABT263, navitoclax]
[1]
  LD50 Ratio (NC/SC): 20.32
[2]; Table 2, IR-SC
  LD50 Ratio (NC/SC): 20.66
[2]; non-senescent vs IR-induced senescent WI-38 cells
  LD50 Ratio (NC/SC): 20.6
[3]
  SCs in lungs (luminescence, p16 mRNA): reduced IR-induced SCs
[4]
  LD50 Ratio (NC/SC): 8.69
